Experimental data taken from patent US20220362203A1, “METHOD FOR TREATING MOOD DISORDERS” (published 2022).

Experiments:
CUMS rats = assay: Preference for sugar water in chronic unpredictable moderate stress (CUMS) depression rat model; settings: for Preference for sugar water (sugar water intake/total fluid intake): n = 10, x ± s.e.m.; for Effect on preference for sugar water versus model group (in words): after six weeks of administration, P<0.05 or P<0.01 vs model group
APP/PS1 mice = assay: Elevated plus maze (EPM) test in APP/PS1 mice; settings: 0.3 mg/kg by gavage once a day Monday to Friday from 6 months of age; test at 10 months, 7 days after electric shock; vs wild-type mice
ICR mice = assay: Novelty-suppressed feeding (NSF) test in wild-type ICR mice; settings: 0.3 mg/kg by gavage every day for 12 days; n=20; placebo 201.6±21.5 s; p<0.05
[1] = test system: C57B6 mice with neuronal damage (MPTP); assay: Preference for sugar water in mice with MPTP neuronal damage
[2] = test system: C57B6 mice with neuronal damage (MPTP); assay: Deaths of mice with MPTP neuronal damage during the experiment; settings: PD-PAO group of 20 mice, PAO 0.3 mg/kg; 12 died in PD-ctrl group of 20

In the case of `COc1ccc(C(CN(C)C)C2(O)CCCCC2)cc1` (stereo not shown), the “Preference for sugar water (sugar water intake/total fluid intake)” value (CUMS rats; venlafaxine 15 mg/kg oral once a day, CUMS for 5 weeks) is reported as 0.90 ± 0.08, the Preference for sugar water (sugar water intake/total fluid intake) (CUMS rats; venlafaxine 15 mg/kg oral once a day, CUMS for 6 weeks) is reported as 0.94 · and the Preference for sugar water (sugar water intake/total fluid intake) (CUMS rats; venlafaxine 15 mg/kg oral once a day, CUMS for 7 weeks) is reported as 0.92 ··. For the same molecule, the Preference for sugar water (sugar water intake/total fluid intake) (CUMS rats; venlafaxine 15 mg/kg oral once a day, CUMS for 8 weeks) was 0.9 · and the “Effect on preference for sugar water versus model group (in words)” value (CUMS rats; venlafaxine oral) was “can increase the preference for sugar water”.
`O=[As]c1ccccc1` (stereo not shown) was tested, and the “Percentage of the time spent in the open arm (EPM)” value (APP/PS1 mice) was “not significantly different from that of the wild-type mice”, the “Feeding latency (time to start eating, NSF)” value (ICR mice) was 159.6 ± 20.3 s and the “Preference for sugar water” value ([1]; PAO 0.3 mg/kg by gavage every day for 7 days in the fourth week, test day 7 of fourth week (FIG. 8A)) was “not significantly different from the blank group”. The “Preference for sugar water” value ([1]; after administration stopped, test day 7 of the sixth week (FIG. 8B)) was “no significant difference from each other”, the “Mice died during the experiment” value [2] was 6 mice and the “Effect on preference for sugar water (in words)” value (CUMS rats; PAO 1.5 mg/kg oral) was “can also increase the preference for sugar water”. The “Effect on preference for sugar water versus model group (in words)” value (CUMS rats; PAO 3 mg/kg and 0.75 mg/kg oral) was “can increase the preference for sugar water”, the “Preference for sugar water (sugar water intake/total fluid intake)” value (CUMS rats; high dose 3.0 mg/kg by gavage once a day, CUMS for 5 weeks) was 0.81 ± 0.21 and the “Preference for sugar water (sugar water intake/total fluid intake)” value (CUMS rats; high dose 3.0 mg/kg by gavage once a day, CUMS for 6 weeks) was 0.84 ± 0.17. The Preference for sugar water (sugar water intake/total fluid intake) (CUMS rats; high dose 3.0 mg/kg by gavage once a day, CUMS for 7 weeks) was 0.9 ·, the “Preference for sugar water (sugar water intake/total fluid intake)” value (CUMS rats; high dose 3.0 mg/kg by gavage once a day, CUMS for 8 weeks) was 0.86 ± 0.10 and the “Preference for sugar water (sugar water intake/total fluid intake)” value (CUMS rats; low dose 0.75 mg/kg by gavage once a day, CUMS for 5 weeks) was 0.87 ± 0.15. For the same molecule, the “Preference for sugar water (sugar water intake/total fluid intake)” value (CUMS rats; low dose 0.75 mg/kg by gavage once a day, CUMS for 6 weeks) was 0.88 ± 0.14, the Preference for sugar water (sugar water intake/total fluid intake) (CUMS rats; low dose 0.75 mg/kg by gavage once a day, CUMS for 7 weeks) was 0.91 · and the Preference for sugar water (sugar water intake/total fluid intake) (CUMS rats; low dose 0.75 mg/kg by gavage once a day, CUMS for 8 weeks) was 0.92 ·. The “Preference for sugar water (sugar water intake/total fluid intake)” value (CUMS rats; medium dose 1.5 mg/kg by gavage once a day, CUMS for 5 weeks) was 0.72 ± 0.30, the “Preference for sugar water (sugar water intake/total fluid intake)” value (CUMS rats; medium dose 1.5 mg/kg by gavage once a day, CUMS for 6 weeks) was 0.78 ± 0.20 and the “Preference for sugar water (sugar water intake/total fluid intake)” value (CUMS rats; medium dose 1.5 mg/kg by gavage once a day, CUMS for 7 weeks) was 0.86 ± 0.08. The “Preference for sugar water (sugar water intake/total fluid intake)” value (CUMS rats; medium dose 1.5 mg/kg by gavage once a day, CUMS for 8 weeks) was 0.81 ± 0.14 and the “Onset time of antidepressant effect” value (CUMS rats; oral PAO compared with venlafaxine by gavage) was “slightly later than oral administration by gavage of venlafaxine”.
